Results on 1 compound are retold here after US20230374038A1, “MODULATORS OF CYSTIC FIBROSIS TRANSMEMBRANE CONDUCTANCE REGULATOR” (VERTEX PHARMACEUTICALS INCORPORATED, priority 2020, published 2023).

Chains of the proteins cited; added tags and fusions are not shown. A line that says so, or that is headed by a name, gives the form on record, which may keep a tag or linker.
UniProt P13569, with tags, fused parts or gaps DEL508-508: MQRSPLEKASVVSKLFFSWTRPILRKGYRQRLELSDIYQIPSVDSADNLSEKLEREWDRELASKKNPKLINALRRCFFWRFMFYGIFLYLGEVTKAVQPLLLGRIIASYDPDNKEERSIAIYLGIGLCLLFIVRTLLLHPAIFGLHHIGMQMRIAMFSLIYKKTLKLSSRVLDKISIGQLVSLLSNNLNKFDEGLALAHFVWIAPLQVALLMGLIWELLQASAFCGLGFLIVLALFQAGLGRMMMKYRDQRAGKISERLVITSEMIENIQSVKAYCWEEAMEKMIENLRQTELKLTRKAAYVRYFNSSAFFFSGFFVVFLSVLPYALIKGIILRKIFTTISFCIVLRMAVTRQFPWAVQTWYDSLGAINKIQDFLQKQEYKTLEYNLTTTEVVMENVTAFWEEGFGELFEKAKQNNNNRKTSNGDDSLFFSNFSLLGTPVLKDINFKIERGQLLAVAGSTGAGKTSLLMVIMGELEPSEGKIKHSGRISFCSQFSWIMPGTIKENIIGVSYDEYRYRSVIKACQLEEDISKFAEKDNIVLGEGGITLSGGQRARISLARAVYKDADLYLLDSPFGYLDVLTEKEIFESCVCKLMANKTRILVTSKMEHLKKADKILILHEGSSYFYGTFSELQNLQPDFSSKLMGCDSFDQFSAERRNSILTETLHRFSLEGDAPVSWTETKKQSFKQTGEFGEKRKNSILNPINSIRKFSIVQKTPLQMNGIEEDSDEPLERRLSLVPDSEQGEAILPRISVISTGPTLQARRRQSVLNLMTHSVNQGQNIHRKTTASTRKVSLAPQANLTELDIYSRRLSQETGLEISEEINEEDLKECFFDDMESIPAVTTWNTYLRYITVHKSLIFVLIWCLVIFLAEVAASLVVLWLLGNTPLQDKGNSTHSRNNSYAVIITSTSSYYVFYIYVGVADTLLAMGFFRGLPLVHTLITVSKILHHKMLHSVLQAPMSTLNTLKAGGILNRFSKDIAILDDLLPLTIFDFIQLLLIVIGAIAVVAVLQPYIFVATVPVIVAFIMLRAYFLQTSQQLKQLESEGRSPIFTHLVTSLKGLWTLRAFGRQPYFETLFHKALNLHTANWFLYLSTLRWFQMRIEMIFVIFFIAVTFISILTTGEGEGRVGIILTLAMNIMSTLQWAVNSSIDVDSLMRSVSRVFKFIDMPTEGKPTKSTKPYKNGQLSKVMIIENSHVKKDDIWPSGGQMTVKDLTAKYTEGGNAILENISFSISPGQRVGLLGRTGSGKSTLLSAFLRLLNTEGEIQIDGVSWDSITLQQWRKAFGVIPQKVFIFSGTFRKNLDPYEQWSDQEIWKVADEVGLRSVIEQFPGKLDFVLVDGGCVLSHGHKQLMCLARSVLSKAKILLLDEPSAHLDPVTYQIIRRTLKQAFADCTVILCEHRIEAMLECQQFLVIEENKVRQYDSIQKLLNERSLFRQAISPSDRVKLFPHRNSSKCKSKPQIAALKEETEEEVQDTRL

This assay has as its target CFTR (Homo sapiens, UniProt P13569, DEL508-508). Description: HBE Assay: Ussing chamber assay of CFTR-mediated short-circuit currents in F508del/MF-HBE cells with 1 μM Ivacaftor. The protocol:
Ussing chamber experiments were performed using human bronchial epithelial (HBE) cells derived from CF subjects heterozygous for F508del and a minimal function CFTR mutation (F508del/MF-HBE) and cultured as previously described (Neuberger T, Burton B, Clark H, Van Goor F Methods Mol Biol 2011:741:39-54). After four days the apical media was removed, and the cells were grown at an air liquid interface for >14 days prior to use.
(§1) To isolate the CFTR-mediated short-circuit (ISC) current, F508del/MF-HBE grown on Costar® Snapwell™ cell culture inserts were mounted in an Ussing chamber and the transepithelial ISC was measured under voltage-clamp recording conditions (Vhold=0 mV) at 37° C. […] The CFTR-mediated ISC (μA/cm^2) for each condition was determined from the peak forskolin response to the steady-state current following inhibition.
The activity of the CFTR corrector compounds on the CFTR-mediated ISC was determined in Ussing chamber studies as described above. […]
as §1

A word on the EC50: it is the midpoint of the concentration-response curve.

Bounds are passed on as bounds.

For the compound `Cc1cccc(CC2CCCCC2)c1-c1nc2nc(c1C)OC[C@@H](CC(C)C)N(Cc1ccc(N3CCOCC3)cn1)C(=O)c1cccc(c1)S(=O)(=O)N2`, under “18-24 hours, 20% human serum”, the “HBE Max Activity” value is listed as “+++ (+++ is >600%)”. Where the note is “read-out: HBE EC50, 18-24 hours, 20% human serum”, the EC50 is under 1 µM.
